Where two headings read alike, the source gives them in different places.
Legend:
[1] = test system: THP1 cells; assay: Annexin V apoptosis assay in THP1; conditions: Homo sapiens, THP-1, read-out: Apoptosis EC50 (C.L.95%) (supplement CSV)
[2] = test system: THP1 cells; conditions: read-out: myeloid differentiation EC50 THP1 (earlier work); cited from earlier work
[3] = test system: U937 cells; assay: Annexin V apoptosis assay in U937; conditions: Homo sapiens, U-937, 72 h, read-out: apoptosis EC50 U937 (CL 95%)
[4] = LogD7.4, shake-flask n-octanol/PBS; conditions: pH 7.4
[5] = target: recombinant hDHODH (Homo sapiens, UniProt Q02127); assay: hDHODH inhibition assay (DCIP reduction); conditions: read-out: hDHODH, IC50 ± SE

The chains behind the UniProt entries cited, without tags or fusion partners. Where a name states a change or a piece, a line headed by the entry shows the natural chain unless it says otherwise.
UniProt Q02127: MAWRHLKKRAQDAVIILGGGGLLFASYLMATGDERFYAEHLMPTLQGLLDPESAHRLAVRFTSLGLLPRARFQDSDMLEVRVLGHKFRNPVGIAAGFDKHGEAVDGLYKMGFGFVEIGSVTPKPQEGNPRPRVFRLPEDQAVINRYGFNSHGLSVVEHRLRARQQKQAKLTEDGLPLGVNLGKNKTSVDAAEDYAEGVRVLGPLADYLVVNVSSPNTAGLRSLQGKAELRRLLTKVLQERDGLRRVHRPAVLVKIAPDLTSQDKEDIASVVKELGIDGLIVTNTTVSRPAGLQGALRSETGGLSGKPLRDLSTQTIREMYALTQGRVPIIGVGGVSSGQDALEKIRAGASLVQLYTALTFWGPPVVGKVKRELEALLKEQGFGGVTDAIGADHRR

For `Cc1c(-c2ccc(-c3ccccc3F)cc2)nc2ccc(F)cc2c1C(=O)O` [Brequinar, reference compound], the EC50 [1] is listed as 299 nM, the EC50 [2] is listed as 265 nM and the EC50 [3] is listed as 322 nM.
`COc1cccc(-c2c(F)c(F)c(NC(=O)c3c(O)nn4ccccc34)c(F)c2F)c1` [Compound 16, 2-Hydroxy-N-(2,3,5,6-tetrafluoro-3′-methoxy-[1,1′-biphenyl]-4-yl)pyrazolo[1,5-a]pyridine-3-carboxamide] gave a logD at 20 min [4] of 2.46 ± 0.04.
`CCCOc1cccc(-c2c(F)c(F)c(NC(=O)c3c(O)nn4ccccc34)c(F)c2F)c1` [Compound 17, 2-Hydroxy-N-(2,3,5,6-tetrafluoro-3′-propoxy-[1,1′-biphenyl]-4-yl)pyrazolo[1,5-a]pyridine-3-carboxamide] gave an IC50 [5] of 4.09 ± 0.62 nM.

— PMC8279415, “Targeting Acute Myelogenous Leukemia Using Potent Human Dihydroorotate Dehydrogenase Inhibitors Based on the 2-Hydroxypyrazolo[1,5-a]pyridine Scaffold: SAR of the Biphenyl Moiety” (Journal of Medicinal Chemistry, 2021)
